The values below are quoted from earlier work in paper PMC4844587, “PET imaging of cyclooxygenase-2 (COX-2) in a pre-clinical colorectal cancer model” (EJNMMI Research, 2016).

The subject of this data set is COX-1. Further details: method as in PMID 24145766. The conditions noted are these: cited from earlier work.

Turning to `CS(=O)(=O)c1ccc(-c2cc(C(F)(F)F)nc(NCc3ccc(F)cc3)n2)cc1` [Pyricoxib, N-(4-fluorobenzyl)-4-[4-(methylsulfonyl)-phenyl]-6-(trifluoro-methyl)pyrimidin-2-amine], the COX-1 inhibition result (concentration range tested) is “did not show COX-1 inhibition in the concentration range tested”. Usually IC50 stands for the concentration needed to halve the response being measured. For the compound `CS(=O)(=O)c1ccc(-c2cc(C(F)(F)F)nc(NCc3ccc([18F])cc3)n2)cc1` [[^18F]Pyricoxib, N-(4-[^18F]fluorobenzyl)-4-[4-(methylsulfonyl)phenyl]-6-(trifluoro-methyl)pyrimidin-2-amine], the IC50 was above 100 µM.
